Reference: article PMC10893053, “Mechanistic Insight in Permeability through Different Membranes in the Presence of Pharmaceutical Excipients: A Case of Model Hydrophobic Carbamazepine” (Pharmaceutics, 2024)

Assays:
[1] = Free CBZ fraction estimation; format: physicochemical; details: F127 1.83 mmol·L-1
[2] = Micelle (F127)/buffer apparent partition coefficient of CBZ; format: physicochemical; details: 37 °C
Description: (§1) Additionally, for the sake of the reliable comparison of the partition within the micellar and cyclodextrin systems, the concentrations of the excipient (F127 or SBE-β-CD) on the X-axis were expressed in kg∙L^−1. From the results of the partition coefficients determinations, the thermodynamics of solubilization by F127 and SBE-β-CD was disclosed by the excess free Gibbs energy ( ΔGS37°C ) evaluation, using the equation:(12) ΔGS37°C=−RT·lnKexcipient/buf
(§2) In the case of cyclodextrins, the nonspecific interaction between the solute and the cavity of cyclodextrin takes place, and the solubilization process may be attributed to the partition of solutes from the aqueous buffer into the cyclodextrin cavity. In this work, the partition from the micellar pseudo phase (F127) to the aqueous buffer pH 6.8, as well as from SBE-β-CD to the buffer was studied using the plots of the linear dependences (Figure S4), plotted according to Equations (10) and (11). The calculations were conducted in two variants.

[3] = Cyclodextrin (SBE-β-CD)/buffer apparent partition coefficient of CBZ; format: physicochemical; details: 37 °C
Description: as §1, §2

[4] = In vitro permeability, Franz diffusion cell, regenerated cellulose membrane; format: in vitro ADME; details: RC membrane, 37 °C
Description: (§3) The apparent permeability coefficients were measured at 37 °C with the help of a vertical-type Franz diffusion cell (PermeGear, Inc., Hellertown, PA, USA). The experimental setup was the same as it was described in our previous study, where the excess amount of the investigated substance was placed in glass cups with ground-in lids. The required volume of buffer pH 6.8 without and with a predetermined concentration of the excipient (F127 or SBE-β-CD in the present study) was added, and the suspension was mixed overnight and filtered to obtain a clear solution. The concentration of this solution was determined and used for the further calculation of the permeability coefficient. […] The membrane was mounted between the donor and receptor chambers of the Franz cell. The effective surface area of the membrane was 0.785 cm^2. Each experiment lasted 5 h. The donor solution was permanently mixing with a magnetic stirrer at a constant rate. The aliquots of the receptor solution (0.5 mL) were withdrawn every 30 min and promptly replaced with the same volume of the fresh buffer.
(§4) The apparent permeability coefficients were taken as the average values of no less than three replicas. […]

[5] = In vitro permeability, Franz diffusion cell, polydimethylsiloxane–polycarbonate membrane; format: in vitro ADME; details: PDS membrane, 37 °C
Description: as §3, §4

[6] = set-up: method as in PMID 21415539; details: water to 1-octanol; pH 7.4 of the aqueous phase; cited from earlier work

NC(=O)N1c2ccccc2C=Cc2ccccc21 [CBZ, carbamazepine]
Free fraction of CBZ (ffree) [1]: 0.454
ΔGS37°C (buffer pH 6.8→F127), apparent free Gibbs energy of CBZ transfer [2]: −10.5 kJ∙mol^−1
ΔGS37°C (buffer pH 6.8→SBE-β-CD), apparent free Gibbs energy of CBZ transfer [3]: −13.7 kJ∙mol^−1
Pratio (ratio of Papp with the excipient to Papp with pure buffer solution) ([4]; F127 1.33 mmol·L^−1): 0.585
Pratio (ratio of Papp with the excipient to Papp with pure buffer solution) ([4]; F127 1.83 mmol·L^−1): 0.484
Pratio (ratio of Papp with the excipient to Papp with pure buffer solution) ([4]; F127 2.30 mmol·L^−1): 0.369
Pratio (ratio of Papp with the excipient to Papp with pure buffer solution) ([4]; SBE-β-CD 6.89 mmol·L^−1): 0.373
Pratio (ratio of Papp with the excipient to Papp with pure buffer solution) ([4]; SBE-β-CD 13.78 mmol·L^−1): 0.244
Pratio (ratio of Papp with the excipient to Papp with pure buffer solution) ([4]; SBE-β-CD 20.67 mmol·L^−1): 0.225
Pratio (ratio of Papp with the excipient to Papp with pure buffer solution) ([5]; F127 1.33 mmol·L^−1): 0.504
Pratio (ratio of Papp with the excipient to Papp with pure buffer solution) ([5]; F127 1.83 mmol·L^−1): 0.446
Pratio (ratio of Papp with the excipient to Papp with pure buffer solution) ([5]; F127 2.30 mmol·L^−1): 0.377
Pratio (ratio of Papp with the excipient to Papp with pure buffer solution) ([5]; SBE-β-CD 6.89 mmol·L^−1): 0.224
Pratio (ratio of Papp with the excipient to Papp with pure buffer solution) ([5]; SBE-β-CD 13.78 mmol·L^−1): 0.140
Pratio (ratio of Papp with the excipient to Papp with pure buffer solution) ([5]; SBE-β-CD 20.67 mmol·L^−1): 0.100
logP [6]: 2.58
